Reference: article PMC8624105 (Viruses, 2021)
pKd: −log10 of the molar value.

What was measured:
Test in all cases: holdup assay
Assay type in all cases: binding, human
SHANK1 = test system: SHANK1
NHERF3 PDZ1 = test system: NHERF3 PDZ1
NHERF1 PDZ1 = test system: NHERF1 PDZ1
SHROOM2 PDZ1 = test system: SHROOM2 PDZ1
NHERF2 PDZ1 = conditions: PDZ about 4 μM; two independent experiments
MAGI3 PDZ5 = conditions: PDZ about 4 μM; two independent experiments
FRMPD3 PDZ1 = conditions: PDZ about 4 μM; two independent experiments
PDLIM3 PDZ1 = conditions: PDZ about 4 μM; two independent experiments
LIN7C PDZ1 = conditions: PDZ about 4 μM; sd not given
ARHGAP23 PDZ1 = conditions: PDZ about 4 μM; two independent experiments
CASK PDZ1 = conditions: PDZ about 4 μM; two independent experiments
SDCBP2 PDZ1 = conditions: PDZ about 4 μM; two independent experiments
PTPN13 PDZ4 = conditions: PDZ about 4 μM; two independent experiments
HTRA1 PDZ1 = conditions: PDZ about 4 μM; two independent experiments
PDZD2 PDZ4 = conditions: PDZ about 4 μM; two independent experiments
InaDl PDZ2 = conditions: PDZ about 4 μM; two independent experiments
PDZRN3 PDZ1 = conditions: PDZ about 4 μM; two independent experiments
DLG2 PDZ1 = conditions: PDZ about 4 μM; two independent experiments
TJP1 PDZ1 = conditions: PDZ about 4 μM; two independent experiments
DLG3 PDZ3 = conditions: PDZ about 4 μM; two independent experiments
PARD3 PDZ2 = conditions: PDZ about 4 μM; two independent experiments
PTPN13 PDZ1 = conditions: PDZ about 4 μM; two independent experiments
GIPC3 PDZ1 = conditions: PDZ about 4 μM; two independent experiments
PDZD2 PDZ6 = conditions: PDZ about 4 μM; two independent experiments
MAGI1 PDZ2 = conditions: PDZ about 4 μM; two independent experiments
MAGI2 PDZ5 = conditions: PDZ about 4 μM; two independent experiments
RGS3 PDZ1 = conditions: PDZ about 4 μM; two independent experiments
PDLIM4 PDZ1 = conditions: PDZ about 4 μM; two independent experiments
IL16 PDZ3 = conditions: PDZ about 4 μM; two independent experiments
AHNAK2 PDZ1 = conditions: PDZ about 4 μM; sd not given
GRIP1 PDZ7 = conditions: PDZ about 4 μM; two independent experiments
SNTG2 PDZ1 = conditions: PDZ about 4 μM; two independent experiments
MAGI3 PDZ4 = conditions: PDZ about 4 μM; two independent experiments
PDZD7 PDZ3 = conditions: PDZ about 4 μM; two independent experiments
MAGI2 PDZ3 = conditions: PDZ about 4 μM; two independent experiments
SYNJ2BP PDZ1 = conditions: PDZ about 4 μM; two independent experiments
NHERF3 PDZ4 = conditions: PDZ about 4 μM; two independent experiments
MPDZ PDZ1 0 = conditions: PDZ about 4 μM; two independent experiments
GRIP1 PDZ2 = conditions: PDZ about 4 μM; two independent experiments
MPDZ PDZ1 = conditions: PDZ about 4 μM; two independent experiments
DLG1 PDZ3 = conditions: PDZ about 4 μM; two independent experiments
HTRA2 PDZ1 = conditions: PDZ about 4 μM; two independent experiments
TIAM1 PDZ1 = conditions: PDZ about 4 μM; two independent experiments
TJP3 PDZ3 = conditions: PDZ about 4 μM; two independent experiments
InaDl PDZ10 = conditions: PDZ about 4 μM; two independent experiments
LIMK1 PDZ1 = conditions: PDZ about 4 μM; two independent experiments
APBA3 PDZ1 = conditions: PDZ about 4 μM; two independent experiments
DVL1 PDZ1 = conditions: PDZ about 4 μM; two independent experiments
InaDl PDZ8 = conditions: PDZ about 4 μM; two independent experiments
DFNB31 PDZ3 = conditions: PDZ about 4 μM; two independent experiments
[1] = PDZ about 4 μM, two independent experiments
[2] = converted from BI, PDZ typically 4 μM, immobilized peptide 21 μM, listed as PBM peptide from ACE2 protein, read-out: Kd estimated

Substance: Biotin-(PEG3)-GFQNTDDVQTSF [ACE2 PBM peptide]
- BI (binding intensity) (SHANK1; [1]): 0.54
- pKd (SHANK1; [2]): 4.79
- BI (binding intensity) (NHERF3 PDZ1; [1]): 0.50
- pKd (NHERF3 PDZ1; [2]): 4.72
- BI (binding intensity) (NHERF1 PDZ1; [1]): 0.39
- pKd (NHERF1 PDZ1; [2]): 4.51
- BI (binding intensity) (SHROOM2 PDZ1; [1]): 0.26
- pKd (SHROOM2 PDZ1; [2]): 4.25
- BI (binding intensity) (NHERF2 PDZ1): 0.15
- BI (binding intensity) (MAGI3 PDZ5): 0.14
- BI (binding intensity) (FRMPD3 PDZ1): 0.07
- BI (binding intensity) (PDLIM3 PDZ1): 0.05
- BI (binding intensity) (LIN7C PDZ1): 0.05
- BI (binding intensity) (ARHGAP23 PDZ1): 0.03
- BI (binding intensity) (CASK PDZ1): 0.03
- BI (binding intensity) (SDCBP2 PDZ1): 0.03
- BI (binding intensity) (PTPN13 PDZ4): 0.02
- BI (binding intensity) (HTRA1 PDZ1): 0.02
- BI (binding intensity) (PDZD2 PDZ4): -0.01
- BI (binding intensity) (InaDl PDZ2): -0.01
- BI (binding intensity) (PDZRN3 PDZ1): -0.01
- BI (binding intensity) (DLG2 PDZ1): -0.01
- BI (binding intensity) (TJP1 PDZ1): -0.01
- BI (binding intensity) (DLG3 PDZ3): -0.02
- BI (binding intensity) (PARD3 PDZ2): -0.02
- BI (binding intensity) (PTPN13 PDZ1): -0.02
- BI (binding intensity) (GIPC3 PDZ1): -0.02
- BI (binding intensity) (PDZD2 PDZ6): -0.03
- BI (binding intensity) (MAGI1 PDZ2): -0.04
- BI (binding intensity) (MAGI2 PDZ5): -0.04
- BI (binding intensity) (RGS3 PDZ1): -0.04
- BI (binding intensity) (PDLIM4 PDZ1): -0.04
- BI (binding intensity) (IL16 PDZ3): -0.04
- BI (binding intensity) (AHNAK2 PDZ1): -0.04
- BI (binding intensity) (GRIP1 PDZ7): -0.04
- BI (binding intensity) (SNTG2 PDZ1): -0.05
- BI (binding intensity) (MAGI3 PDZ4): -0.05
- BI (binding intensity) (PDZD7 PDZ3): -0.06
- BI (binding intensity) (MAGI2 PDZ3): -0.06
- BI (binding intensity) (SYNJ2BP PDZ1): -0.06
- BI (binding intensity) (NHERF3 PDZ4): -0.06
- BI (binding intensity) (MPDZ PDZ1 0): -0.07
- BI (binding intensity) (GRIP1 PDZ2): -0.07
- BI (binding intensity) (MPDZ PDZ1): -0.07
- BI (binding intensity) (DLG1 PDZ3): -0.07
- BI (binding intensity) (HTRA2 PDZ1): -0.08
- BI (binding intensity) (TIAM1 PDZ1): -0.08
- BI (binding intensity) (TJP3 PDZ3): -0.08
- BI (binding intensity) (InaDl PDZ10): -0.09
- BI (binding intensity) (LIMK1 PDZ1): -0.10
- BI (binding intensity) (APBA3 PDZ1): -0.11
- BI (binding intensity) (DVL1 PDZ1): -0.14
- BI (binding intensity) (InaDl PDZ8): -0.24
- BI (binding intensity) (DFNB31 PDZ3): -0.24
